Source: ChEMBL document CHEMBL2331145, “Orvinols with mixed kappa/mu opioid receptor agonist activity” (2013)
Active and inactive are the calls of the source. The rule behind the calls is not given here.

Protein sequences, listed by entry. Tags and fused reporters are not part of them. Lines headed by an entry give the natural chain unless they say otherwise; changes in a name come on top.
UniProt P41144: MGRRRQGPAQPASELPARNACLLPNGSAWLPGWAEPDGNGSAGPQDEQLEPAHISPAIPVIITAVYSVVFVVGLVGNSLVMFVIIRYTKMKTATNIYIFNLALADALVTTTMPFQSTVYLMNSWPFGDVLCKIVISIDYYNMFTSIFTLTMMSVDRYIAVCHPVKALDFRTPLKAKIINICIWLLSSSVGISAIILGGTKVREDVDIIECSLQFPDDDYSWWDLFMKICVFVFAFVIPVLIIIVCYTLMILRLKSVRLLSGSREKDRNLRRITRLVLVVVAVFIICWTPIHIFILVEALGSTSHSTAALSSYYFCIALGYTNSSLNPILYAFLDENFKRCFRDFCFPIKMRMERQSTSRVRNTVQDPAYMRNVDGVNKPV

Key:
[1] = biological target: Kappa-type opioid receptor (Cavia porcellus) (UniProt P41144); test: Agonist activity at kappa opioid receptor in guinea pig ileum assessed as inhibition of electrically-stimulated muscle contraction in presence of MOR antagonist CTAP
[2] = biological target: Kappa-type opioid receptor (Cavia porcellus) (UniProt P41144); test: Agonist activity at kappa opioid receptor in guinea pig ileum assessed as inhibition of electrically-stimulated muscle contraction in presence of KOR antagonist norBNI

For `CO[C@@]12CC[C@@]3(C[C@@H]1[C@](C)(O)C(C)(C)C)[C@H]1Cc4ccc(O)c5c4[C@@]3(CCN1CC1CC1)[C@H]2O5`, the Activity [1] was “Active”, the Activity [2] was “Active” and the Ke [2] was 1.8 nM.
